Usually Ki stands for the equilibrium dissociation constant of an inhibitor or competing ligand from its target. High values mean a looser hold on the target, low ones a stronger hold on the target. As a reminder, the IC50 is the midpoint of a concentration-inhibition curve.

The chains behind the UniProt entries cited, without tags or fusion partners. Where a name states a change or a piece, a line headed by the entry shows the natural chain unless it says otherwise.
UniProt P10275: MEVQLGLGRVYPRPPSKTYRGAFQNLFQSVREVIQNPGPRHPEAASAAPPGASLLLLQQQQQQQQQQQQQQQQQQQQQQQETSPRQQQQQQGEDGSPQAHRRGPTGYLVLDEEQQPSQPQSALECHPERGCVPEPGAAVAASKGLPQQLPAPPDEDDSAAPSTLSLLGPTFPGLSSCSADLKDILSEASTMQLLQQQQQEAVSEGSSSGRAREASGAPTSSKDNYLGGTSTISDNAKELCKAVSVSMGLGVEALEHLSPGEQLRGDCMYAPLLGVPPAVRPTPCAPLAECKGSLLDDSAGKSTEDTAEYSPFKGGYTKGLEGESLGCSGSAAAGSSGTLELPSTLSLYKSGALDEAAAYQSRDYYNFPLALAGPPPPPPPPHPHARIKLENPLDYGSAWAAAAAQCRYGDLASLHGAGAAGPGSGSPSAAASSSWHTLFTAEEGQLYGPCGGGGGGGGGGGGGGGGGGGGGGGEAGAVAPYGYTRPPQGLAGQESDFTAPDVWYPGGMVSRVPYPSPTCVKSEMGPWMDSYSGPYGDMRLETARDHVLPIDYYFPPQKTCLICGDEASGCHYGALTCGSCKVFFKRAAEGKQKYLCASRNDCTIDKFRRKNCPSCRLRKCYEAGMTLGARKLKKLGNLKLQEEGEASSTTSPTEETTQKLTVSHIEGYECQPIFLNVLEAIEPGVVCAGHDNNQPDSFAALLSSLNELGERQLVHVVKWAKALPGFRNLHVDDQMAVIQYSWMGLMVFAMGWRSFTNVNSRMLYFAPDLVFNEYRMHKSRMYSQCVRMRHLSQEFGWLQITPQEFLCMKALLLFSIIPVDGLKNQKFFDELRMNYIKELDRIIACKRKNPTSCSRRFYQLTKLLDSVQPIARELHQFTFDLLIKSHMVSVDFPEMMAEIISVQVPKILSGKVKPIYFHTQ

We go through 1 compound from ChEMBL document CHEMBL1131477, “Synthesis and biological activity of a novel series of nonsteroidal, peripherally selective androgen receptor antagonists derived from 1,2-dihydropyridono[5,6-g]quinolines” (J Med Chem, 1998).

Assay [1] deals with T1, Androgen receptor (Homo sapiens, UniProt P10275). In words: biochemical.
Assay [2] concerns the target T1, Androgen receptor.

As for `CCC1(C)CCc2cc3c(C(F)(F)F)cc(=O)[nH]c3cc2N1` (configuration not stated), the Ki in assay [1] turned out to be 29 nM. The IC50 in assay [2] was determined as 23 nM.
